Antibody variant affinities, Ab-95 light chain, assay 2

Values reported by Engelhart et al. 2022, doi:10.1038/s41597-022-01779-4 (FLAb copy).

Binding partner: SARS-CoV-2 spike HR2 peptide, sequence PDVDLGDISGINAS.

The variants keep the heavy chain, the linker and the frameworks of Ab-95 (scFv order VH, the linker GGGGSGGGGSGGGGS, VL).
VH: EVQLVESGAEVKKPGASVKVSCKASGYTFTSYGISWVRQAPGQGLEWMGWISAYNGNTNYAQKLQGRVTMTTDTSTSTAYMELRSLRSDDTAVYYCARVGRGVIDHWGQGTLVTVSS
VL: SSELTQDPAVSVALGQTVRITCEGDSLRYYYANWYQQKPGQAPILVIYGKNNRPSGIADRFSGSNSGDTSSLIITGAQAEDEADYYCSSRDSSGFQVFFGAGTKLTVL

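The parent was found by panning a naive human phage display library on the peptide. The library (AAYL52) carries one to three amino acid substitutions per variant, with no insertions or deletions. In AlphaSeq, yeast of one mating type display the scFv and yeast of the other type display the target. Binding brings cells together so that they mate, and sequencing counts the barcode pairs among the diploids. Each replicate has its own calibration line, from reference interactions of the BCL2 family. Mating was done three times.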

Changes read parent residue, position, new residue, counted from the first residue of the VL shown. Every variant below is changed at R53 of the VL (sequential numbering). Numbers give log10(Kd / nM), so 0 is 1 nM and 3 is 1 µM. Smaller is tighter. The mean shown is taken over the replicates in which the pair was detected. "no signal" means that the variant was in the library but no mating with the target was seen in any replicate; the authors take this as a sign of poor binding, and no number exists. Parent in this assay: reference entry 2.31, copy in this library 2.25.

| changes | mean log10 Kd (nM) | replicates with signal |
|---|---|---|
| R53H/S92P/V97W | 3.52 | 3/3 |
| Y29R/Y31T/R53W | 3.54 | 3/3 |
| Y31M/N33F/R53D | no signal | 0/3 |
| G24T/R53L | 3.66 | 3/3 |
| Y30H/R53V/S93V | 1.54 | 3/3 |
| S26F/R53V | 3.78 | 2/3 |
| Y31H/R53F/S92W | 3.15 | 3/3 |
| S26H/R28C/R53Q | 3.86 | 2/3 |
| G49M/R53D | 4.36 | 1/3 |
| N33A/K50D/R53L | no signal | 0/3 |
| D25K/R53D | no signal | 0/3 |
| N51Y/R53C/S88V | 5.21 | 1/3 |
| R53T/P54G/D91M | 2.88 | 3/3 |
| R53K/S92Q | 1.64 | 3/3 |
| R53G/D91W/V97A | 2.81 | 2/3 |
| K50I/R53K | 3.09 | 3/3 |

The closing 3 entries, repeated:

{"changes": "R53K/S92Q", "mean log10 Kd (nM)": "1.64", "replicates with signal": "3/3"}
{"changes": "R53G/D91W/V97A", "mean log10 Kd (nM)": "2.81", "replicates with signal": "2/3"}
{"changes": "K50I/R53K", "mean log10 Kd (nM)": "3.09", "replicates with signal": "3/3"}

Empty control strains, which show no peptide, gave a signal in 28% of pairings with library AAYL52; the median was 3.91 and 95% of these signals were weaker than 2.90. No background was subtracted.